{
  "sequences": {"note": "By UniProt entry, the sequences of proteins in these tests, tags left out.", "UniProt P28223, whole entry": "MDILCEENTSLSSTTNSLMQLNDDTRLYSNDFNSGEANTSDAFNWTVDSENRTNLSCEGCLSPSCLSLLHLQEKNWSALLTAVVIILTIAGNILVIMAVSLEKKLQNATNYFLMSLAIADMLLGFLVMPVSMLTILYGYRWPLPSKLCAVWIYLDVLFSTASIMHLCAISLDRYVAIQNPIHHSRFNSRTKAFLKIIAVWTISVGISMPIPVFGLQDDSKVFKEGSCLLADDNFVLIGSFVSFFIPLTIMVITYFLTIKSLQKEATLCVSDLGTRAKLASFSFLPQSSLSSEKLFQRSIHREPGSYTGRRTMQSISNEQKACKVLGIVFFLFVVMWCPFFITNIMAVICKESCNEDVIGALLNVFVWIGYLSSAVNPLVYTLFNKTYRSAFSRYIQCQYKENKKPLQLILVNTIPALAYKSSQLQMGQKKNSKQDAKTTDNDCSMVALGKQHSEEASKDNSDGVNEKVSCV"},
  "source": "patent US20240254087A1",
  "about": "“SELECTIVE, PARTIAL, AND ARRESTIN-BIASED 5-HT2A AGONISTS WITH UTILITY IN VARIOUS DISORDERS” (Saint Joseph's University, priority 2021, published 2024)",
  "biological_target": "5-HT2A (Homo sapiens, UniProt P28223)",
  "assay": "NanoLuc internalization assay",
  "conditions": "60 min",
  "data": [
    {"smiles": "NCCc1c[nH]c2ccc(O)cc12", "note": "[Compound 5-HT, reference compound]", "values": [
      {"measurement": "Internalization of 5-HT2A receptors", "value": "strong internalization"}
    ]}
  ]
}
